Molecular target: Melanocortin receptor 4 (Homo sapiens, UniProt P32245, C271Y)
Assay: Agonist activity at human melanocortin-4 receptor C271Y mutant expressed in HEK293 cells co-transfected with CRE/beta-galactosidase reporter gene assessed as stimulatory response after 6 hrs
Type: functional, cell-based

Protein sequences, listed by entry. Tags and fused reporters are not part of them.
UniProt P32245, whole entry C271Y: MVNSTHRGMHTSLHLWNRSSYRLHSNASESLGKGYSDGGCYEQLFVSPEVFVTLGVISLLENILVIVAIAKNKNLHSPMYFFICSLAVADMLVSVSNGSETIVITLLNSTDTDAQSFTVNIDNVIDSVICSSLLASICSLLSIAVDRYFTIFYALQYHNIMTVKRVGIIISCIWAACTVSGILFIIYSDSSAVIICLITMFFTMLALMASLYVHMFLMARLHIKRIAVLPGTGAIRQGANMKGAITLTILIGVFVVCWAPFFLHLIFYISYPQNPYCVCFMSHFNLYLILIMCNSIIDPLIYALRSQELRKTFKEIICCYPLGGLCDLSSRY

Work on `CC(=O)N[C@@H](Cc1cnc[nH]1)C(=O)N[C@H](Cc1ccccc1)C(=O)N[C@@H](CCCN=C(N)N)C(=O)N[C@@H](Cc1c[nH]c2ccccc12)C(N)=O` yielded an EC50 of 1.2 µM.

From ChEMBL document CHEMBL3286334
